Assay results: patent US20100260680A1, “NOVEL BONE MASS INCREASING AGENT” (ORIENTAL YEAST CO., LTD., priority 2007, published 2010)

Assays:
[1] = test system: GSK3β; assay: Western blotting of GSK3β phosphorylation in MC3T3-E1 cells; type: cell-based, mouse; conditions: 1 and 3 hours after the addition; 200 μM peptide D or 200 ng/ml BMP-2
Protocol: (§1) MC3T3-E1 cells mixed with 10% FBS+αMEM (SIGMA) were seeded on a 6-well plate (7.5×10^4 cells/well). After 12 hours, the medium was removed therefrom and a medium containing 200 μM peptide D or 200 ng/ml BMP-2 was added thereto. The medium was removed at the respective time points shown in the relevant figures. PBS was added to the cells, and the cells were collected with a scraper (Falcon). A cell pellet was obtained via centrifugation at 1200 rpm for 5 min at 4° C. RIPA buffer (100 μL) was added to the collected pellet, for dissolution of the cellular membrane. Further, the resultant was centrifuged under conditions of 14500 rpm for 25 min at 4° C. The supernatant was collected as a cell extract. A portion of the cell extract was used for quantification of the protein concentration with the use of a BCA protein assay kit (PIERCE). For SDS-PAGE, a sample buffer in an amount that was ¼ that of the cell extract (Fermentas) was added thereto, followed by heating at 95° C. for 5 min. The prepared sample was applied in an amount of 7.5 or 10 μg to 10% polyacrylamide gel (BioRad), followed by electrophoresis at 170 V for 1 hour. After electrophoresis, the electrophoresed sample was transferred to a PVDF membrane (Millipore) at 80 mA for 40 min. […]

[2] = test system: Smad1/5/8; assay: Western blotting of Smad1/5/8 phosphorylation in MC3T3-E1 cells; type: cell-based, mouse; conditions: up to 3 hours after the addition; 200 μM peptide D or 200 ng/ml BMP-2
Protocol: as §1

[3] = test system: MAP kinase p38; assay: Western blotting of p38 phosphorylation in MC3T3-E1 cells; type: cell-based, mouse; conditions: 1 hour after the addition; 200 ng/ml BMP-2
Protocol: as §1

[4] = test system: mouse RANKL; assay: RT-PCR of RANKL expression in C2C12 cells; type: cell-based; conditions: 100 ng/mL BMP-2; 36 hours
Protocol: C2C12 cells were seeded on a 96-well plate (5×10^3 cells/well). BMP-2 was added thereto in a manner such that the concentration thereof became 100 ng/mL after cell adhesion. After 36 hours, a TRIZOL solution (Invitrogen) (84 μL) was added to each well for cell lysis, thereby causing RNA extraction. A sample was prepared by collecting the resultants from 6 wells per group. Chloroform (Wako) (0.1 mL) was added to the sample, followed by vigorous end-over-end mixing and centrifugation under conditions of 4° C. at 12000×g for 15 minutes. The supernatant was collected in a new tube. Isopropanol (Nacalai) (0.25 mL) was added thereto, followed by end-over-end mixing. The resultant was left at room temperature for 10 min, followed by centrifugation under conditions of 4° C. at 12000×g for 10 minutes. The supernatant was removed therefrom. Then, 70% ethanol (1 mL) was added thereto, followed by centrifugation under conditions of 4° C. at 12000×g for 5 minutes. The further supernatant was removed therefrom. The RNA concentration thereof was determined, and 2 μg of the resultant was subjected to RT-PCR. RT-PCR was performed using ThermoScript RT-PCR System (Invitrogen) and random primers. After cDNA synthesis, PCR was performed using primers specific to mouse RANKL. For standardization, PCR was performed using primers specific to mouse GAPDH. The PCR primer sequences used are shown below. […]

B1: BMP-2: BMP-2 (R&D), known bone morphogenetic factor used as positive control (protein, UniProt P12643 283-396, looked up)
Bone morphogenetic protein 2: QAKHKQRKRLKSSCKRHPLYVDFSDVGWNDWIVAPPGYHAFYCHGECPFPLADHLNSTNHAIVQTLVNSVNSKIPKACCVPTELSAISMLYLDENEKVVLKNYQDMVVEGCGCR
- phosphorylation of GSK3β [1]: observed to a similar extent
- phosphorylation of Smad1/5/8 [2]: observed
- p38 phosphorylation [3]: p38 phosphorylation was observed
- RANKL expression levels [4]: RANKL expression levels in C2C12 cells increase
